The record followed here is ChEMBL document CHEMBL1131565, “Aminopyrimidines with high affinity for both serotonin and dopamine receptors” (J Med Chem, 1998).

For this assay, the target named is 5-hydroxytryptamine receptor 1A (Rattus norvegicus) (UniProt P19327). The assay can be described thus: Intrinsic agonist activity at 5-HT1A receptors was measured in vivo by measuring changes in 5-HT levels after administration of compound by observing accumulation of the 5-HT […] 5-hydroxytryptophan (5-HTP) after administration of a 10 mg/k g ip.

As for `c1ccc(N2CCN(CC[C@H]3CC[C@H](Nc4ncccn4)CC3)CC2)cc1`, the Control stood at 57%.
